Measured affinities in a library of Ab-14 light chain variants

All variants were tested on one target, the spike HR2 peptide PDVDLGDISGINAS (SARS-CoV-2).

The variants keep the heavy chain, the linker and the frameworks of Ab-14 (scFv order VH, three GGGGS repeats, VL).
VH: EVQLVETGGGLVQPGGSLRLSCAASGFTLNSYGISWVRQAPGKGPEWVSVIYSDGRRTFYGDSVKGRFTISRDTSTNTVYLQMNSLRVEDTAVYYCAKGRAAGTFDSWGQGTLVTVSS
VL: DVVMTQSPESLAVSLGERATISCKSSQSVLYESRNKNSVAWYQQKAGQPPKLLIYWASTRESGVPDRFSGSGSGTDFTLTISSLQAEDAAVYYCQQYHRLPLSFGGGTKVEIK

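The parent was found by panning a naive human phage display library on the peptide. This is the validation round: designs drawn from the data on random variants, tested in the same kind of assay. Group labels follow the data file (Ctrl: baseline library sampled from a position-specific scoring matrix, with some repeated check sequences; En: ensemble of fine-tuned language models; GP: Gaussian process model; HC: hill climbing; Gen: genetic algorithm; Gibbs: Gibbs sampling; a sequence that several methods proposed may carry one label only). The assay is AlphaSeq: two haploid yeast populations carry antibody and antigen on their surface. Binding brings cells together so that they mate, and sequencing counts the barcode pairs among the diploids. A regression on co-assayed BCL2-family reference pairs converts the normalised counts of each replicate to an apparent Kd. Each pool was mated in six replicate cultures.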

The parent's light chain CDRs are KSSQSVLYESRNKNSVA, WASTRES, QQYHRLPLS; each variant's own CDRs replace them letter for letter. The Kd shown is the geometric mean over detected replicates; a lower Kd is a better binder. A pair that was not seen in any replicate is written "nd"; this usually means weak binding, but a binder can also be missed. The range of this assay differs from that of the first round, and the authors advise against merging the two.

Read-out 1.0 nM (6 of 6 replicates; controls 2 of 18), from FISQSVEYESRDKNSVA | NASTRLS | QQYHRLPLS [GP_Gibbs].
Read-out 89 nM (2 of 6 replicates; controls 0 of 18), from MLYGAAMGLSRKENSVA | DNSTRYS | QQYDRLPLS [En_Gen].
Read-out 2.3 µM (2 of 6 replicates; controls 0 of 18), from IITQSVMQESRNKSNVA | NTTERES | QQYDRLPLI [En_HC].
Read-out 3.1 nM (6 of 6 replicates; controls 0 of 18), from KLRQVTGYENYLRNSVA | QMSTRAE | QDYHRLPLS [En_HC].
Read-out 240 pM (6 of 6 replicates; controls 1 of 18), from KISQSVLYEDRNKNNVA | NASQRES | QQYHRLPLS [GP_Gen].
Read-out 510 pM (6 of 6 replicates; controls 0 of 18), from KFSMSFLYESRNKNSVA | GASTRES | QQYHRLPLS [GP_HC].
Read-out 540 nM (4 of 6 replicates; controls 2 of 18), from RLGLNFSWPGNARQSVA | EIQKAID | QQYAHLPLS [En_Gibbs].
Read-out 48 nM (6 of 6 replicates; controls 0 of 18), from NISIEDYSENNFANNVA | STDCRCD | QQYFMLPLM [En_Gibbs].
Read-out 9.4 nM (3 of 6 replicates; controls 0 of 18), from IFSQSVLMGQMTRNSVA | QASTRFN | QQYHRLPLI [En_HC].
Read-out 24 nM (6 of 6 replicates; controls 0 of 18), from KLSWDCTTDLNQMHSVA | ESEVAVD | QQYAHLPLT [En_Gibbs].
Read-out 650 pM (6 of 6 replicates; controls 0 of 18), from KVSMSWMQLERNKNSVA | QASQREQ | QQYHRLPLS [GP_Gibbs].
Read-out 22 nM (6 of 6 replicates; controls 0 of 18), from TLYGLTNSMSKNKDNVA | EMSTREL | QQYDRLPLA [En_Gen].
Read-out 2.3 nM (6 of 6 replicates; controls 1 of 18), from KLQCSEEYESRNFNSVA | QASTRNL | QQYHRLPLS [GP_Gibbs].
Read-out 35 nM (3 of 6 replicates; controls 0 of 18), from MFSQMLGLGMKVQNSVA | QASTRFN | QQYHRLPLM [En_Gen].
Read-out 1.1 nM (6 of 6 replicates; controls 0 of 18), from TISQMSTMFSQSINNVA | EVSTREQ | QQYDRLPLM [En_Gen].
Read-out 450 pM (6 of 6 replicates; controls 3 of 18), from KVQQSWLYESRNKNSVA | DASTRES | QQYHRLPLS [GP_Gen].
Read-out 2.2 nM (6 of 6 replicates; controls 1 of 18), from KIGMTLNQLYEKKNNVA | DLVERVN | QQYHRLPLS [En_Gen].
Read-out 3.5 nM (6 of 6 replicates; controls 0 of 18), from KVSQSVLEESRQKNSVA | WASTREA | QQYHRLPLS [Ctrl].
Read-out 12 nM (6 of 6 replicates; controls 0 of 18), from SLKYQQDGNGLQRQAIA | GVGLKEL | QQYGRLPLT [En_Gibbs].
Read-out 2.7 nM (6 of 6 replicates; controls 0 of 18), from TIADLMGHISKQTNNVA | DQNTRGD | QQYNRLPLS [En_Gen].
Read-out 15 nM (6 of 6 replicates; controls 0 of 18), from KQSESYLYESRNKNSVA | EASTRES | QQYHRLPLS [GP_HC].
Read-out 4.1 nM (6 of 6 replicates; controls 2 of 18), from HMSMLSLMGSRQRNSVA | QMTTREN | QQYDRLPLM [En_Gen].
Read-out 9.1 nM (6 of 6 replicates; controls 1 of 18), from IISQSVLDESRNKNSVA | DASTRES | QQYHRLPLS [GP_HC].
Read-out 2.1 nM (6 of 6 replicates; controls 1 of 18), from KSSPDVLYESHNKNSVA | NASTRMS | QQYHRLPLS [GP_HC].
Read-out 520 pM (6 of 6 replicates; controls 1 of 18), from KVSPSVLYESRTKNSVA | NASTRES | QQYHRLPLS [GP_HC].
Read-out 6.2 nM (6 of 6 replicates; controls 1 of 18), from KLRQSTKYESRNQNSVA | HASTRSS | QQYHRLPLS [GP_HC].
Read-out 37 nM (6 of 6 replicates; controls 0 of 18), from KLMNSLDAFHSWEDNIA | ETEIKVA | QQYYHLPLT [En_Gibbs].
Read-out 2.5 nM (6 of 6 replicates; controls 1 of 18), from KLSQSQLYESRNFNSVA | NASQRES | QQYHRLPLS [GP_Gen].
Read-out 16 nM (6 of 6 replicates; controls 0 of 18), from KSSQSVLYESRDKNSVA | QASTRES | QQYHILPLS [Ctrl].
Read-out nd (0 of 6 replicates; controls 0 of 18), from KIGMTLNMMMHKKNNVA | DLVERED | QQYHRLPLS [En_Gen].
Read-out 100 nM (6 of 6 replicates; controls 0 of 18), from HFAYQLQSLYLSKQNVA | NASTVMT | QHYNRLPLS [En_Gibbs].
Read-out 1.5 nM (6 of 6 replicates; controls 0 of 18), from KHSGSYLYESRNKNSVA | EASTRES | QQYHRLPLS [GP_HC].
Read-out 2.4 nM (6 of 6 replicates; controls 0 of 18), from KIGMTLNTLEHKQNNVA | DLVTREN | QQYFRLPLS [En_Gen].
Read-out 1.1 nM (6 of 6 replicates; controls 2 of 18), from KLPQSWLYESRNKNSVA | NASTRES | QDYHRLPLS [GP_Gen].
Read-out 330 nM (6 of 6 replicates; controls 2 of 18), from KLRQSENYESRNKNSVA | NASTRES | QIYHRLPLS [GP_HC].
Read-out 160 nM (4 of 6 replicates; controls 0 of 18), from KGSQSVLYESGNKNSVA | WASTRES | QQYHRLPLS [Ctrl].
Read-out nd (0 of 6 replicates; controls 3 of 18), from KNSQSVYYESRFKNSVA | WASTRES | QQYHRLPLS [Ctrl].
Read-out 8.0 nM (6 of 6 replicates; controls 2 of 18), from TISTSMRYESSLKNAIA | NAQTRES | QQYHRLPLI [En_HC].
Read-out 310 pM (6 of 6 replicates; controls 2 of 18), from KLSWSVLFESRNKNSVA | DASTRES | QQYHRLPLS [GP_HC].
Read-out 2.4 nM (6 of 6 replicates; controls 0 of 18), from KSSISYLYESGNKNSVA | QASTRES | QQYHRLPLS [GP_HC].
Read-out 5.7 nM (6 of 6 replicates; controls 1 of 18), from NISQMFLMETKHVNNVA | QTSTRES | QDYHRLPLS [En_HC].
Read-out 4.0 nM (6 of 6 replicates; controls 1 of 18), from KLEFSELEESRNPNSVA | SASTRES | QDYHRLPLS [GP_Gibbs].
Read-out nd (0 of 6 replicates; controls 3 of 18), from KSSQSLLMESRNKNWVA | WASTRES | QQTHRLPLS [Ctrl].

Extract of 2 entries:

CDR-L1,CDR-L2,CDR-L3,group,Kd,replicates with signal,control signals
KIGMTLNMMMHKKNNVA,DLVERED,QQYHRLPLS,En_Gen,nd,0 of 6,0 of 18
FISQSVEYESRDKNSVA,NASTRLS,QQYHRLPLS,GP_Gibbs,1.0 nM,6 of 6,2 of 18

The parent sequence was in this pool as ten entries: three were never detected, three once, and four in most replicates, with averages from 2.2 nM to 240 nM. Three control strains display no target. For all light chain designs, 4% of the pairings with them gave a signal, with a median of 430 nM and one signal in twenty below 38 nM, so weak values seen in few replicates may be background. The control count says in how many pairings with the empty strains this scFv gave a signal. In the paper, a design with two or fewer of six values counts as a poor binder.

Values reported by Li et al. 2023, doi:10.1038/s41467-023-39022-2 (FLAb copy).